# Data from PubChem BioAssay AID588689 (Southern Research Specialized Biocontainment Screening …, 2011).
# Sequences of proteins named here, by UniProt entry; tags and fusion partners are left off.
# UniProt P29991, whole entry: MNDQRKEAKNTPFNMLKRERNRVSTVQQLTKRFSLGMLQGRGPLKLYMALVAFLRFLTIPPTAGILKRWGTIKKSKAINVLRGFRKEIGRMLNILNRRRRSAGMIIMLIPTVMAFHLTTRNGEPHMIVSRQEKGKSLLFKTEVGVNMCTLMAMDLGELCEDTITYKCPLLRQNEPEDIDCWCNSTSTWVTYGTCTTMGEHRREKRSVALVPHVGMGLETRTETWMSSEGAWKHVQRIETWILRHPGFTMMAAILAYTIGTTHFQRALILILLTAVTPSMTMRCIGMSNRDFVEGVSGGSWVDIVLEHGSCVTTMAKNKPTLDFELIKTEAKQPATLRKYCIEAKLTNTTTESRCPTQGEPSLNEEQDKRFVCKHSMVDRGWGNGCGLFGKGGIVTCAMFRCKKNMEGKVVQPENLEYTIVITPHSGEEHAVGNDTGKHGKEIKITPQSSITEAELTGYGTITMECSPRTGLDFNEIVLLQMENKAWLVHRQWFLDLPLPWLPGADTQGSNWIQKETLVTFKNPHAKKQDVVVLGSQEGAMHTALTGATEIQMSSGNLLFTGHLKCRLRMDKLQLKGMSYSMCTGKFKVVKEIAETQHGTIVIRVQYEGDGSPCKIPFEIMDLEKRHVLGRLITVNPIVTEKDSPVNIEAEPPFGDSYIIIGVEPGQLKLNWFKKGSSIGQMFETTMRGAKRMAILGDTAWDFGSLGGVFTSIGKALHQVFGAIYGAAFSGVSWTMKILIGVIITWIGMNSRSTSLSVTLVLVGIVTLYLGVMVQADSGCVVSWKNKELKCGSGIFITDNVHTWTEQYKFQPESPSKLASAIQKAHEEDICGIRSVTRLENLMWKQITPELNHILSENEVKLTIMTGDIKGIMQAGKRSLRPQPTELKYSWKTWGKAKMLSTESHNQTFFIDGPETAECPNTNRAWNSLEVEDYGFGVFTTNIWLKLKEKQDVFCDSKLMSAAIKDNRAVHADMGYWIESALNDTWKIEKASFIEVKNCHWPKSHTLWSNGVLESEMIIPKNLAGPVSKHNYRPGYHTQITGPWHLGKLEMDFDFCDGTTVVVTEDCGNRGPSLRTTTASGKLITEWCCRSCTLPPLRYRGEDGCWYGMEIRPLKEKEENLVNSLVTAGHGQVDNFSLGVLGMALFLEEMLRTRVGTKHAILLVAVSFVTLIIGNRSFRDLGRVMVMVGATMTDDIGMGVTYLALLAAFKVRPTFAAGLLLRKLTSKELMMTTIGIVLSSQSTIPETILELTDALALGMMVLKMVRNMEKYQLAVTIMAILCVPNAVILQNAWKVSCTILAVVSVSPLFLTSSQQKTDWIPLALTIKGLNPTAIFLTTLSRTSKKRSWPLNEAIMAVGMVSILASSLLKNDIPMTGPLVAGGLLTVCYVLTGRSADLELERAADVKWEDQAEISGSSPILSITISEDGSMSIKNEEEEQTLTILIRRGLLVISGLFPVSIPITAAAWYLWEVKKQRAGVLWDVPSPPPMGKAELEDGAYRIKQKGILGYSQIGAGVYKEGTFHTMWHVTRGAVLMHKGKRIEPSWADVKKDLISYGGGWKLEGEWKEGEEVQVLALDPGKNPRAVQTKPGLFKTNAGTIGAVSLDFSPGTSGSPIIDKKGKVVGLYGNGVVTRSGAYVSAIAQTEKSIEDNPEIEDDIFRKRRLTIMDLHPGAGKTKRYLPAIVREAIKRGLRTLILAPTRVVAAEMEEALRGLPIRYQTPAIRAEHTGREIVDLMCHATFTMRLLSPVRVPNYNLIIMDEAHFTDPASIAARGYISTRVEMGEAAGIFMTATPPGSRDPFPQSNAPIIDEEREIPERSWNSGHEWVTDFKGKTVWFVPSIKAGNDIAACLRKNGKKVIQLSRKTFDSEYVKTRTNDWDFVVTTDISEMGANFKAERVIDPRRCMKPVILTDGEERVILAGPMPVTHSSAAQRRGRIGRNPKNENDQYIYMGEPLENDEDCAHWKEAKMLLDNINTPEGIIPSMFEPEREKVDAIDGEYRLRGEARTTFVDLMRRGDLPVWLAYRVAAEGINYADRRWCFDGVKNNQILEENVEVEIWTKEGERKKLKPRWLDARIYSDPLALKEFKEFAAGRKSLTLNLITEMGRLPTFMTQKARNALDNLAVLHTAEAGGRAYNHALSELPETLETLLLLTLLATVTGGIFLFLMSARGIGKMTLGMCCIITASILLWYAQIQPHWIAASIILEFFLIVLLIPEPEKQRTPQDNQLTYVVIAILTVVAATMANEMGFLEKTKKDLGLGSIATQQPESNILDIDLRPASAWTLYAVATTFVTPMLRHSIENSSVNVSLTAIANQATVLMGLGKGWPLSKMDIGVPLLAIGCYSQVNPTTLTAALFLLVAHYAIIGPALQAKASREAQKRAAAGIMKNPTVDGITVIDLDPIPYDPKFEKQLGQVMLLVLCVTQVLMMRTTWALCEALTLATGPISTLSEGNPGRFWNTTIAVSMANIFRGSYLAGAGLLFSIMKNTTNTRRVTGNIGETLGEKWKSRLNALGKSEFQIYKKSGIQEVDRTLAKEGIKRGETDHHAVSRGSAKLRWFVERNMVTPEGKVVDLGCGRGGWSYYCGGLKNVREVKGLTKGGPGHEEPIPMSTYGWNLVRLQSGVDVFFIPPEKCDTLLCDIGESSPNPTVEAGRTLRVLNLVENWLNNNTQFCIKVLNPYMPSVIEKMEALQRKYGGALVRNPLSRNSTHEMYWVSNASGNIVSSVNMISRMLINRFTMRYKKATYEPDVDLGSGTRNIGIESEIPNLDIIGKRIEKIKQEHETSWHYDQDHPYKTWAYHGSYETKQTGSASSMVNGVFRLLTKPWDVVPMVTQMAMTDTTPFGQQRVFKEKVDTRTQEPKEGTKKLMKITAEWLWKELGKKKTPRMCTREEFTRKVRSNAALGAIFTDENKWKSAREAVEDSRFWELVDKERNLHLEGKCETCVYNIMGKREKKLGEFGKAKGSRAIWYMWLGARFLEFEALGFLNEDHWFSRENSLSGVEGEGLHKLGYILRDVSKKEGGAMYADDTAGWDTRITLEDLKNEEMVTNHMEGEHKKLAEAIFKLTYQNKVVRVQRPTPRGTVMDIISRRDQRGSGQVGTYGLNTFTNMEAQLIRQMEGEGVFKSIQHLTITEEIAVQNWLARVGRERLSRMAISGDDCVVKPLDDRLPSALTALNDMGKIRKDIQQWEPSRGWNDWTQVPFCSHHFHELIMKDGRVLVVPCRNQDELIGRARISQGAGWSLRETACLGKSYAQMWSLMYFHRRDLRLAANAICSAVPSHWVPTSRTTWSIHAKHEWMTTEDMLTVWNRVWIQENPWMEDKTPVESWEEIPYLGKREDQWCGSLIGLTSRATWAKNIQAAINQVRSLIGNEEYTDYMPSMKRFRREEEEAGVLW
# The list shows a part of the results, in another mix than the full data. Entries with a potency or affinity are not part of this list. Calls of active or inactive are those of the source. Rule as the data show it: inconclusive = inhibition above about 29% without an active follow-up result; inactive = below that.
# Molecular target: Genome polyprotein (Dengue virus type 2 (strain 16681-PDK53)) (UniProt P29991)
# Experiment: Dengue-2 NS5 methyltransferase inhibitors, primary screen, biochemical, confirmation dose response (AID 588689)
# Conditions: Dengue-2 NS5 methyltransferase capping enzyme assay, at 25 µM, active compounds read high
row,Structure (SMILES),inhibition
1,CCC(=O)N(c1ccccc1)C1(COC)CCN(CCc2cccs2)CC1,inactive: 4.1%
2,CCC(=O)N(c1ccccc1)C1(COC)CCN(CCn2nnn(CC)c2=O)CC1,inactive: 1.37%
